This test concerns the target T1, CypA (Homo sapiens, UniProt P62937).
T1 construct: hexahistidine tag (His-Tag) (C); made in house; host or cells: E. coli C41(DE3)
As to the kind of experiment: PPIase enzyme assay (chymotrypsin-coupled), CypA. In kind it is biochemical. The conditions noted are these: 20 °C, mean±s.d. The procedure:
CypA and CypB proteins carrying a hexahistidine tag (His-Tag) at their carboxy terminus were expressed in E. coli and purified. Briefly, cultures of C41(DE3) cells were grown at 37 °C for 1 h until the culture reached an OD of 0.6 at 600 nm and then induced with 1 mM isopropyl-β-D-thiogalactopyranoside for 4 h at 37 °C (CypA) or overnight at 22 °C (CypB). Cell pellets were resuspended in a lysis buffer 20 mM NaH2PO4 pH 7.8, 300 mM NaCl, 7 mM β-mercaptoethanol, 1 mg ml^−1 lysozyme, 0.1 U μl^−1 desoxyribonuclease and complete protease inhibitor tablets (Roche Diagnostics Corporation, Indianapolis, Indiana). […] The bound protein was eluted in 1 ml fractions with a buffer composed of 20 mM NaH2PO4 pH 7.8, 300 mM NaCl, 250 mM imidazole, 7 mM β-mercaptoethanol and 10% glycerol, monitored by the Bradford colorimetric assay. The purity of each cyclophilin was determined by Coomassie-stained SDS–PAGE analysis.

Amino acid sequences for entries named in this document (tags omitted).
UniProt P62937, whole entry: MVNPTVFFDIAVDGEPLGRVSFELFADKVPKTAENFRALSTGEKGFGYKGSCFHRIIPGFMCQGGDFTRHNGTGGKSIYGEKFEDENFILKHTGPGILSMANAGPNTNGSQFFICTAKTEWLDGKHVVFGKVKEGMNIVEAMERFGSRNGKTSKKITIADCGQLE

The results in this text go back to article PMC5036131, “Fragment-based discovery of a new family of non-peptidic small-molecule cyclophilin inhibitors with potent antiviral activities” (Nature Communications, 2016).

Structures are written as SMILES.

One may read the IC50 as the concentration at which inhibition is half-maximal. Low values mean higher potency, high ones lower potency. `O=C(NC(=O)c1c(F)cccc1Cl)NC1c2ccccc2-c2ccccc21` [TMN-355, reference compound]: the IC50 was > 100 µM.
